In the assay the target is human CYP11B2 (Homo sapiens (Human), UniProt P19099). In words: Inhibitory effect on hCYP11B2 (aldosterone production by mitochondrial fraction of V79 cells stably expressing human CYP11B2, HTRF). As to conditions: read-out: hCYP11B2 IC50, 0.5 μmol/L deoxycorticosterone, 150 μmol/L NADPH, 1.5-2 hours at room temperature. Background: TR-FRET usually uses a lanthanide donor and a delayed reading to cut background.

Chains of the proteins cited; added tags and fusions are not shown. Residues count along the entry.
UniProt P19099, 25-503 limits assumed: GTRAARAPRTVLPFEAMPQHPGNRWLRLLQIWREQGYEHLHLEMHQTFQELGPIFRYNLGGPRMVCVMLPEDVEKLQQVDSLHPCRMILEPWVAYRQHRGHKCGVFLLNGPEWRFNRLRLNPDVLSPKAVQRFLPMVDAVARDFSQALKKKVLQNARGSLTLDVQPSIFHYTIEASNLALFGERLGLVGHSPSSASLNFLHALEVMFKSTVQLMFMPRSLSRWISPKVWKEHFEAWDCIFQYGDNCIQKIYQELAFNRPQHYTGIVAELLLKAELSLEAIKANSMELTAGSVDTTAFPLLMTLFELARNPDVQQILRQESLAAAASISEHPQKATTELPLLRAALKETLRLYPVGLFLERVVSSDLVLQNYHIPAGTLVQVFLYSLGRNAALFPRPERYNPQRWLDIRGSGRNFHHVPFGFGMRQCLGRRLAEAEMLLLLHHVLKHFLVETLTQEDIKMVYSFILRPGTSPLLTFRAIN

For 2 molecules, IC50 results are on record in patent US10029993B2, “Disubstituted 1, 2, 4-triazine compound” (MITSUBISHI TANABE PHARMA CORPORATION, priority 2014, dated 2018).

`CC(=O)N[C@@H]1CCC[C@H](NC(=O)CN2CCN(c3nncc(-c4ccc(F)cc4)n3)CC2)C1` (relative stereo): the IC50 worked out at 11 nM.
As for `CC(=O)N[C@H]1CC[C@H](NC(=O)CN2CCN(c3nncc(-c4ccc(F)cc4)n3)CC2)CC1`, the IC50 was found to be 4.9 nM.
